Laboratory results from patent US6995188B2 (priority 2002, dated 2006).

Tests used:
[1] = tested on: P388 lymphocytic leukemia cells; conditions: intraperitoneally, daily for 5 days, cited from earlier work
[2] = tested on: caspase 3 and caspase 3-like activities; assay: Detection of caspase activity (PhiPhiLux); format: cell-based, human; conditions: HL-60 cells, 48 and 72 hours
[3] = tested on: human leukemia cell lines; assay: 3 day MTT assay/trypan blue exclusion, human leukemia cell lines; format: cell-based
[4] = Brief acute toxicity testing in Swiss-Webster mice
[5] = tested on: panel of 60 tumor cell lines; assay: Sulforhodamine B assay, NIH panel of 60 tumor cell lines; format: cell-based, human; conditions: 48 hours

For `C[As](C)S[C@@H]1O[C@H](CO)[C@H](O)[C@H](O)[C@H]1O`, the “% T/C” value ([1]; dose 50 mg/kg) is given as 125%.

With S-dimethylarsino-thiosuccinic acid the aqueous solubility (Solubility) was “about 15 mg/mL”, the solubility in ethanol (Solubility; ethanol) was “more than 100 mg/mL” and the “activation of caspases (PhiPhiLux staining)” value [2] was “activation of caspases”.

For “Bis [S-dimethylarsino-α-dihydrolipoic acid”, the “% T/C” value ([1]; dose 50 mg/kg) is listed as 128%.

For S-dimethylarsino-2-thiobenzoic acid, the “anti-cancer activity against a panel of human leukemia cell lines” value [3] was “significant anti-cancer activity”, the LD50 [4] was 50 mg/kg and the “anticancer activity, NIH panel” value [5] was “showed evidence of activity at low concentrations against a variety of tumor cell lines”.

For `CC(=O)N[C@@H]1[C@@H](O)[C@H](O)[C@@H](CS[As](C)C)O[C@@H]1O`, the “% T/C” value ([1]; dose 100 mg/kg) is listed as 125%.

For “1,2,3,4,-tetra-O-acetyl-6-S-dihexadecylarsino-6-thio-β-D-glucopyranose”, the “% T/C” value ([1]; dose 100 mg/kg) is given as 125%.

For “1,2,3,4,-tetra-O-acetyl-6-S-dicyclohexylarsino-6-thio-β-D-glucopyranose”, the “% T/C” value ([1]; dose 25 mg/kg) is listed as 120%.

Read-outs that look alike come from different tables or passages of the source.
